Test results taken from patent US20140302113A1, “SYSTEMS, DEVICES, AND METHODS FOR EMBEDDING DRUG MOLECULES INTO MEDICAL CATHETERS OR TUBES” (priority 2011, published 2014).

Assay: Lidocaine loading process into Foley catheter from loading solution at 40-41° C.
Format: physicochemical
Settings: water based loading solution (glycerin, Natrasol, methyl paraben)
Procedure: This solution can also function as lubricant jelly. […] The bottle was then placed into a Styrofoam® box and heated in an oven with digital temperature control. The temperature inside the box was maintained at about 40-41° C. for the next 48 days. […] Observations were recorded at days 2, 9, 16, 26, 38 (start of room temperature storage), and 69.

For `CCN(CC)CC(=O)Nc1c(C)cccc1C` [Lidocaine, lidocaine], the “saturation concentration of lidocaine in the loading solution” value was 4.6 mg/mL.
